Reference: ChEMBL document CHEMBL1133691 (J Med Chem, 2000)

Target: T1, Dihydrofolate reductase (Homo sapiens, UniProt P00374)
T1 sequence (P00374 whole entry): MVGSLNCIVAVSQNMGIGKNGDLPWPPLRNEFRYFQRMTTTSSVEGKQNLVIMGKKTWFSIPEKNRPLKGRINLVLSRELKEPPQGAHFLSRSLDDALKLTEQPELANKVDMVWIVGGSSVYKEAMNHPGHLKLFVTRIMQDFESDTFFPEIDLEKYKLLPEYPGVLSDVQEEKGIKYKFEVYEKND
Test: Ability to inhibit recombinant human dihydrofolate reductase.

Compound: Nc1nc(N)c2nc(COC(=O)c3ccc(C(=O)N[C@@H](CCC(=O)O)C(=O)O)cc3)cnc2n1
- IC50: 3.1 µM
